These are literature values, as cited in publication PMC6165679.

Protein sequences, listed by entry. Tags and fused reporters are not part of them. Lines headed by an entry give the natural chain unless they say otherwise; changes in a name come on top. Residues count along the entry.
UniProt P35414: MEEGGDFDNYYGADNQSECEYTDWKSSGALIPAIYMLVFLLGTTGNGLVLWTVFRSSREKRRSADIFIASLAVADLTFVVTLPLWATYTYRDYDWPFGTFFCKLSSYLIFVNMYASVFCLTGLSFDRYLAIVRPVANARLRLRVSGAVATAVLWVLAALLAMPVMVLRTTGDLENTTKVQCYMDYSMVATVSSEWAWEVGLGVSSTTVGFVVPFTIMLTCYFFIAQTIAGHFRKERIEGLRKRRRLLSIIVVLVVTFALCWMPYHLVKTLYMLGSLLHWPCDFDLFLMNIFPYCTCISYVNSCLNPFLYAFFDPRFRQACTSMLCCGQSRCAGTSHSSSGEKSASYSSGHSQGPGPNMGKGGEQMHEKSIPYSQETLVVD
UniProt Q9ULZ1, 39-77: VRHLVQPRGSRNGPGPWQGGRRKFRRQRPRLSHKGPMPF

The data set concerns the target APJ receptor (Homo sapiens) (UniProt P35414).

For “apelin-36 apelin-36 (from UniProt Q9ULZ1)”, the Ki (in general, the dissociation constant of the complex between target and ligand, obtained from inhibition or displacement) was 0.05 nM.
